Structures are written as SMILES.

The term IC50 denotes the point on the concentration scale where inhibition reaches its midpoint. Lower therefore signals inhibition by little substance.

This test has as its target SARS-CoV-2 Papain-Like Protease (PLpro) (Severe acute respiratory syndrome coronavirus 2 (2019-nCoV) (SARS-CoV-2), UniProt P0DTD1). Description: biochemical. The conditions noted are these: PLpro IC50, SARS-CoV-2 PLpro enzymatic fluorescence assay.

The compound `Cc1ccc(OC2CNC2)cc1C(=O)N[C@H](C)c1cccc2ccccc12` [Compound 141, (R)-5-(Azetidin-3-yloxy)-2-methyl-N-(1-(naphthalen-1-yl)ethyl)benzamide] had an IC50 of 100 to 1000 nM.

`Cc1ccc(OCCN)cc1C(=O)N[C@H](C)c1cccc2ccccc12` [Compound 159, (R)-5-(2-Aminoethoxy)-2-methyl-N-(1-(naphthalen-1-yl)ethyl)benzamide] yielded an IC50 of 100 to 1000 nM.
